Data as given in PMC8623647 (Pharmaceuticals, 2021).

Test: BBB permeation by parallel artificial membrane permeability assay (PAMPA)
Type: in vitro ADME

## NCCc1ccc(O)c(O)c1 [Dopamine, reference compound]
  Experimental Pe: 0.22 ± 0.01 ×10^−6 cm·s^−1
